Molecular target: hCTLA-4 extracellular domain (aa 1-161) fused to the trans-membrane and cytoplasmic domain of hCD300a (aa … (human, UniProt Q9UGN4 181-299))
Test: cell-based or functional assay

EC50, T-cell/APC IL-2 release assay, APC HEK293/hCD20/hCD80: 15.6 nM
B1: H1H19319P2 (antibody, human IgG1, V domains shown)
VH: QVQLVESGGGEVQPGRSLRLSCAASGFTFSSYGMHWVRQAPGKGLEWVAVIWYDGRNKHYVDSVKGRFTISRDNSKNTVYLQMNSLRAEDSAVYYCVRGGQLGAFDYWGQGTLVTVSS
VL: not shown

From patent US20210040232A1 (Regeneron, published 2021)
